Results reported in USRE42014E1, “Pharmaceutical compositions” (Novartis AG, priority 1996, dated 2010).

Settings: Lipofundin 10% MCT

Compound: C/C=C/C[C@@H](C)C(=O)[C@H]1C(=O)N[C@@H](C(C)C)C(=O)N(C)CC(=O)N(C)[C@@H](CC(C)C)C(=O)N[C@@H](C(C)C)C(=O)N(C)[C@@H](CC(C)C)C(=O)N[C@@H](C)C(=O)N[C@H](C)C(=O)N(C)[C@@H](CC(C)C)C(=O)N(C)[C@@H](CC(C)C)C(=O)N(C)[C@@H](C(C)C)C(=O)N1C [PSC 833, [3′-desoxy-3′-oxo-MeBmt]^1-[Val]^2-Ciclosporin]
- Loading of the fat phase with PSC 833: up to 20%
